Reference: publication PMC9738927, “A Newly Identified Monoterpenoid-Based Small Molecule Able to Support the Survival of Primary Cultured Dopamine Neurons and Alleviate MPTP-Induced Toxicity In Vivo” (Molecules, 2022)

Test system: MPTP-lesioned C57BL/6 mice
Test: DA and DOPAC levels in midbrain and striatum by HPLC-ED after MPTP lesion
Assay type: in vivo
Procedure: Neurochemical analyses via HPLC-ED were conducted as described before. Microdissected samples of the striatum (ST) and midbrain were homogenized in 300 and 400 µL of cold 0.6 M HClO4, respectively, using a motor-driven grinder (Z359971, Sigma-Aldrich, USA) and the homogenate was spun for 15 min at 12,000 rpm (+4 °C). The pellet was diluted in 1 mL of 0.1 M NaCl and used for protein quantitation by Bradford (Bio Rad, USA) according to the manufacturer’s protocol. The clear supernatant was diluted twice with pure water and used for assay of DA and […] (DOPAC) by HPLC on Luna C18(2) column (5 μm particle size, L × I.D. 75 × 4.6 mm, Phenomenex, Torrance, CA, USA) with electrochemical detection (750 mV, DECADE II™ Electrochemical Detector; Antec, The Netherlands). The standard mixes containing 1, 2, and 3 ng of DA and DOPAC were repeatedly assayed throughout the entire procedure and used to plot the calibration curves for each substance. The areas of peaks were estimated using LabSolution LG/GC software version 5.54 (Shimadzu Corporation, Japan) and calibrated against the calibrated curves for corresponding standards. The contents of DA and DOPAC were expressed nanogram (ng) per milligram (mg) of protein assayed by Bradford.

N[C@@H](Cc1ccc(O)c(O)c1)C(=O)O [L-DOPA, reference compound]
DOPAC level in ST: significantly increased
